# Data as given in article PMC6858350, “A common mechanism allows selective targeting of GluN2B subunit-containing N-methyl-D-aspartate receptors” (Communications Biology, 2019).
# The chains behind the UniProt entries cited, without tags or fusion partners. Residues count along the entry.
# UniProt Q00960, 27-1482: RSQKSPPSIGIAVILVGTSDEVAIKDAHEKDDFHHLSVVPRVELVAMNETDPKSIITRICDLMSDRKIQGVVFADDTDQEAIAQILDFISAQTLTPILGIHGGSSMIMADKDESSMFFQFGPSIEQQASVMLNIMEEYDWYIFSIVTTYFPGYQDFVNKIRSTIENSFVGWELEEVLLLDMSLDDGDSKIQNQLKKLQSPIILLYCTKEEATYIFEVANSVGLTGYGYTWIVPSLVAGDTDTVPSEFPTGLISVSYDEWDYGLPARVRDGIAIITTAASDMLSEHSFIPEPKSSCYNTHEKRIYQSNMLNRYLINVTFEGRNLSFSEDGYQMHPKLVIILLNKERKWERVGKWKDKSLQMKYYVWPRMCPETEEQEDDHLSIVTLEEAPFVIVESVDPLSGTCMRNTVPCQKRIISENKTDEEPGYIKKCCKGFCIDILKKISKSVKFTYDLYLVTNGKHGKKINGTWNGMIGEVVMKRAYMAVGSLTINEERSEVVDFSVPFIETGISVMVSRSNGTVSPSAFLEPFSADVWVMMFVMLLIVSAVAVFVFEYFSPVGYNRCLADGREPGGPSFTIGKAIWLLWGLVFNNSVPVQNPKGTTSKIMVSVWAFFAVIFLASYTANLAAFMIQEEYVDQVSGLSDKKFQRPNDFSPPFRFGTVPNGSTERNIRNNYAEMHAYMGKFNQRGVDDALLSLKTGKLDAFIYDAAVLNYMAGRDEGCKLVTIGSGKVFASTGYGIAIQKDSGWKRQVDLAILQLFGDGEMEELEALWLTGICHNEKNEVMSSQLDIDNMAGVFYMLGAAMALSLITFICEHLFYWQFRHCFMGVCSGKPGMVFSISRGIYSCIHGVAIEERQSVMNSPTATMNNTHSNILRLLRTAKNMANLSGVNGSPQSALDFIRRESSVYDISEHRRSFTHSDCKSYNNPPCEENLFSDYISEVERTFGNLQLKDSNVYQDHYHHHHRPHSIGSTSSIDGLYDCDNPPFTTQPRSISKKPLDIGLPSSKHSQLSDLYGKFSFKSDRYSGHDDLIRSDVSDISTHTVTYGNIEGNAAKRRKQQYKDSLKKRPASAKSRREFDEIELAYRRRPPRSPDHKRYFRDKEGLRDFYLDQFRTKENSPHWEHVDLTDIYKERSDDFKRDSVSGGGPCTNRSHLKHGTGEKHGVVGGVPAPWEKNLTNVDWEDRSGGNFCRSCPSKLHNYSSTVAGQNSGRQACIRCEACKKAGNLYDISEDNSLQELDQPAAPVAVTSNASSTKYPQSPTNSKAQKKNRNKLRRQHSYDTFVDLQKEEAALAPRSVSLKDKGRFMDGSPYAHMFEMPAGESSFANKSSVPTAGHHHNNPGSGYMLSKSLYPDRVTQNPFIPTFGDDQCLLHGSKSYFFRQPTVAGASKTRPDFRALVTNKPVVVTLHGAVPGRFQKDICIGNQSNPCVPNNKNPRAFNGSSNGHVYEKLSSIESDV
# UniProt Q00960, 27-1482 I111A: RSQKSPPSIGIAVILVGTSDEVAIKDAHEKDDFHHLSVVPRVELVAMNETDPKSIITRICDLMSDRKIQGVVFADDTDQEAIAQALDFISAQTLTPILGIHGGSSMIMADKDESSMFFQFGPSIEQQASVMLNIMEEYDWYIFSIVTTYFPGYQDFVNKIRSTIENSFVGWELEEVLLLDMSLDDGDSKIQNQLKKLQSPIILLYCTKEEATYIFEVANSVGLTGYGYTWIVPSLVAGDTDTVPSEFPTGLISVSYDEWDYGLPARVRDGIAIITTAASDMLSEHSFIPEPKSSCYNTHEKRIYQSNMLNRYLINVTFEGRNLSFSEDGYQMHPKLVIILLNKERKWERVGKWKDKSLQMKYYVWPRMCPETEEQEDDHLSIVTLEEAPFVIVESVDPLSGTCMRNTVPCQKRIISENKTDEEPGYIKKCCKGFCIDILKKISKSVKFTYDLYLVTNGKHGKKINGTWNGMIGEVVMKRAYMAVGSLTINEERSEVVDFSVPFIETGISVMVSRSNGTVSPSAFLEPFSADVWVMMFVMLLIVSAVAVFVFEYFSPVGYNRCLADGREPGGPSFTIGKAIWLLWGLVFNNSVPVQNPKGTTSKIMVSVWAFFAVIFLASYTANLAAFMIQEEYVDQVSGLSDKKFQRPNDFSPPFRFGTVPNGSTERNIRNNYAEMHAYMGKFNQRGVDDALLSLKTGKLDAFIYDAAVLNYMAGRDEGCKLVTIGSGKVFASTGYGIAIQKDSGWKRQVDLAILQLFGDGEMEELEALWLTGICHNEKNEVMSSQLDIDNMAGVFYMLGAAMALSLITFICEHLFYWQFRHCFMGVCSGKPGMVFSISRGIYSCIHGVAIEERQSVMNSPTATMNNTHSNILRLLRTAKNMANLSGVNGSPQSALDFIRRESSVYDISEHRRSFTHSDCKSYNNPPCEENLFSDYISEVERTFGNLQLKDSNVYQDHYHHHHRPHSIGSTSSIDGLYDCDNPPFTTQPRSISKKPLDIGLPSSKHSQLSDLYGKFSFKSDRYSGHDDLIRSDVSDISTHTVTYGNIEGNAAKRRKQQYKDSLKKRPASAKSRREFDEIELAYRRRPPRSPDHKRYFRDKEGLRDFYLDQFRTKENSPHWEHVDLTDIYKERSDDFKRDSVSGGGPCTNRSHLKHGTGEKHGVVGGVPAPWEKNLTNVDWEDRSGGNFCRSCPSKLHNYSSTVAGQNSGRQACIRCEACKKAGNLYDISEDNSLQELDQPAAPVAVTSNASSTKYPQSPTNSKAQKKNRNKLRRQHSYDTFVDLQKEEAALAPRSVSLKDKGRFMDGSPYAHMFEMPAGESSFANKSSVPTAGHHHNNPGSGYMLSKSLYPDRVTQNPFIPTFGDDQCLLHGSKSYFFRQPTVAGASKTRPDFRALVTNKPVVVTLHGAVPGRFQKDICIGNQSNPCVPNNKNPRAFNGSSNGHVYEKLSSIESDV
# UniProt Q00960, 27-1482 E236A: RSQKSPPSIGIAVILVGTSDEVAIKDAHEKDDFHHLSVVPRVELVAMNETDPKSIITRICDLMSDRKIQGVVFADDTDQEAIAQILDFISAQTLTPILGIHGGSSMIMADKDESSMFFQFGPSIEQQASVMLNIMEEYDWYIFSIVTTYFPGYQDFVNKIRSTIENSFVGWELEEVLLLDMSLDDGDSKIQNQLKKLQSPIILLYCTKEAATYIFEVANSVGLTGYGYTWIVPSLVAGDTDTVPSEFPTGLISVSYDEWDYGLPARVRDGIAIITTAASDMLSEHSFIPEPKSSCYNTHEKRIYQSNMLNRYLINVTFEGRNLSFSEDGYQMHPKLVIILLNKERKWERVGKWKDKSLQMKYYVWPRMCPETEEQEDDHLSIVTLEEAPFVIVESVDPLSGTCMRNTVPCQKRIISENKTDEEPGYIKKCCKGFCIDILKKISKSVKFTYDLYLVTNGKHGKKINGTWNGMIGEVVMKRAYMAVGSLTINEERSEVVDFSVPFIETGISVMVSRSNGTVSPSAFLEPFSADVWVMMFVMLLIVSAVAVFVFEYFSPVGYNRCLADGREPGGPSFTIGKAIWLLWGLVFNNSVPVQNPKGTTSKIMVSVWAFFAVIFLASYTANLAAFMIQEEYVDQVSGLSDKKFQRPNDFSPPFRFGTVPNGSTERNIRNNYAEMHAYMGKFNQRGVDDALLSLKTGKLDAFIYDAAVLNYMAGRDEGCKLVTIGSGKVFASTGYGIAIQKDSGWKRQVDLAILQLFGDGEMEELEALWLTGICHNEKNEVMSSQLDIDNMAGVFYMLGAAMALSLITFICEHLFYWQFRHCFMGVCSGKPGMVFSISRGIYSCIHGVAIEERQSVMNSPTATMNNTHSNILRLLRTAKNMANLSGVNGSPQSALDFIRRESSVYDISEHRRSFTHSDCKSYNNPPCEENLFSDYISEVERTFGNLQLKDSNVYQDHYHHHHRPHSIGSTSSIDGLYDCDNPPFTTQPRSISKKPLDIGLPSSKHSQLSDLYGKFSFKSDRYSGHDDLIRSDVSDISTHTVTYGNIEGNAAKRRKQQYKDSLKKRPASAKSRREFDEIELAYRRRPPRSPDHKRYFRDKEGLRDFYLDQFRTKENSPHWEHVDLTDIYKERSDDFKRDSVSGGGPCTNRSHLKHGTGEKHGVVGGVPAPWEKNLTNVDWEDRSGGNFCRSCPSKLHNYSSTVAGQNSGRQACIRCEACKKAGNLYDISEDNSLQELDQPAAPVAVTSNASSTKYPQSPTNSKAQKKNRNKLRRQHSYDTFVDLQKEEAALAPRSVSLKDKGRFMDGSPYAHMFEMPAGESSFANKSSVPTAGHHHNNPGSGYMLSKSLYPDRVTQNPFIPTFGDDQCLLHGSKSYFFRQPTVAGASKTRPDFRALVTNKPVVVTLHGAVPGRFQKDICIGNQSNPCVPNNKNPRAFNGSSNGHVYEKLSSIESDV
# How the values were obtained:
# GluN1-1a S132A/GluN2B WT = GluN1-1a S132A/GluN2B WT (Rattus norvegicus, UniProt P35439+Q00960, S132A)
# GluN1-1a WT/GluN2B I111A = GluN1-1a WT/GluN2B I111A (Rattus norvegicus, UniProt P35439+Q00960, I111A); settings: mutant IC50 / wildtype IC50, GluN2B I111A
# GluN1-1a Y109S/GluN2B WT = GluN1-1a Y109S/GluN2B WT (Rattus norvegicus, UniProt P35439+Q00960, Y109S); settings: mutant IC50 / wildtype IC50, GluN1-1a Y109S
# GluN1-1a F113S/GluN2B WT = GluN1-1a F113S/GluN2B WT (Rattus norvegicus, UniProt P35439+Q00960, F113S); settings: mutant IC50 / wildtype IC50, GluN1-1a F113S
# GluN1-1a WT/GluN2B E236A = GluN1-1a WT/GluN2B E236A (Rattus norvegicus, UniProt P35439+Q00960, E236A); test: cell-based
compound,measurement,setting,value
Oc1ccc2c(c1)CCN(CCCCc1ccccc1)C[C@@H]2O [compound (R)-1],p (slope),GluN1-1a S132A/GluN2B WT,0.74
Oc1ccc2c(c1)CCN(CCCCc1ccccc1)C[C@H]2O [compound (S)-1],IC50 shift factor,GluN1-1a WT/GluN2B I111A,7.6
same,IC50 shift factor,GluN1-1a Y109S/GluN2B WT,3.7
same,IC50 shift factor,GluN1-1a F113S/GluN2B WT,3.7
same,IC50,GluN1-1a WT/GluN2B E236A,1980 ± 597 nM
